ChEMBL document CHEMBL3526014, “Correlation between bilirubin glucuronidation and estradiol-3-gluronidation in the presence of model UDP-glucuronosyltransferase 1A1 substrates/inhibitors” (Drug Metab Dispos, 2011)

Columns and labels:
[1] = biological target: T1, UDP-glucuronosyltransferase 1A1 (Homo sapiens, UniProt P22309); experiment: Inhibition of human recombinant UGT1A1 expressed in HEK293 cells assessed as reduction in estradiol 3-glucuronidation by LC-MS/MS method; format: ADME, cell-based
T1 sequence (P22309 whole entry): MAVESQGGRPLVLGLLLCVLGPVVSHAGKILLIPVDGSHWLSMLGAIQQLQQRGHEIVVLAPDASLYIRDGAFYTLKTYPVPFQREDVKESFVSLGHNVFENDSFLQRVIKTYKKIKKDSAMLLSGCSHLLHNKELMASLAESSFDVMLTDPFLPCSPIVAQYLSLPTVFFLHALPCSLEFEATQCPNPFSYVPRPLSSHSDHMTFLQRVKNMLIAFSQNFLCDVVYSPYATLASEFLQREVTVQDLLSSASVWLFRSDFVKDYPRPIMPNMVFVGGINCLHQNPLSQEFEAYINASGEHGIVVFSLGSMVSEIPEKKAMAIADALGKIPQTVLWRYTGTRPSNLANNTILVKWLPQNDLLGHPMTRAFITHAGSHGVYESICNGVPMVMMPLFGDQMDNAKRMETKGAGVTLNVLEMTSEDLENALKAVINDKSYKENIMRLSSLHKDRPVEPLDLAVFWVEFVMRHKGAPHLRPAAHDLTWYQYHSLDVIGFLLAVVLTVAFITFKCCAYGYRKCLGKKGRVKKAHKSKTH

[2] = biological target: T1, UDP-glucuronosyltransferase 1A1; experiment: Inhibition of human recombinant UGT1A1 expressed in HEK293 cells assessed as reduction in bilirubin glucuronidation by LC-MS/MS method; format: ADME, cell-based

For COc1ccccc1OCCNCC(O)COc1cccc2[nH]c3ccccc3c12 (configuration not stated) [CARVEDILOL], the IC50 [1] was 12 µM and the IC50 [2] was 27 µM.
